Measurements from publication PMC10873626, “Acceleration of infectious disease drug discovery and development using a humanized model of drug metabolism” (Proceedings of the National Academy of Sciences of the …, 2024).

Legend:
[1] = mouse, microsomes
[2] = mouse, microsomes; remark: listed apart in the source
[3] = mouse, microsomes; remark: listed apart in the source

CO[C@H]1/C=C/O[C@@]2(C)Oc3c(C)c(O)c4c(O)c(c(/C=N/N5CCN(C)CC5)c(O)c4c3C2=O)NC(=O)/C(C)=C\C=C\[C@H](C)[C@H](O)[C@@H](C)[C@@H](O)[C@@H](C)[C@H](OC(C)=O)[C@@H]1C [Rifampicin]
0.5 mL/min/g liver: CLint, CypC4KO [1] | CLint, WT [2] | CLint, 8HUM [3]
